Usually Ki stands for a measure of affinity in units of concentration, obtained from inhibition or displacement.

By UniProt entry, the sequences of proteins in these tests, tags left out.
UniProt P19327, whole entry: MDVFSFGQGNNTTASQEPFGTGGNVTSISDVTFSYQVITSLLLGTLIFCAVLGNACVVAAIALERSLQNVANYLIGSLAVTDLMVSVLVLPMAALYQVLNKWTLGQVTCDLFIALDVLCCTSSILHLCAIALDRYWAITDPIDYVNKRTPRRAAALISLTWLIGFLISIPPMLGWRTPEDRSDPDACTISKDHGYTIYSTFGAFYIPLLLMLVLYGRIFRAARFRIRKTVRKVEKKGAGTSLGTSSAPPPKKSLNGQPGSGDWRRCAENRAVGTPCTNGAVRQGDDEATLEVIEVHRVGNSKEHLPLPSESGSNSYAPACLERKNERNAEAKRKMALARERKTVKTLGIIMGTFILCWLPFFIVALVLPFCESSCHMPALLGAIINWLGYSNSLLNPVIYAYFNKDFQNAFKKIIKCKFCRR

This is an account of results in patent publication US7488730B2, “N-(1,2,3,4-tetrahydronaphthalen-1-yl)-4-phenyl-1-piperazinealkylamide derivatives, and therapeutic use thereof as 5-HT7 receptor ligands” (Universita Degli Studi Di Bari, priority 2005, dated 2009).

The assay addresses 5-HT1A receptors (Rattus norvegicus, UniProt P19327). The settings on record: read-out: Ki, nM 5-HT1A; [3H]-8-OH-DPAT, rat hippocampal membranes.

As for `COc1ccccc1N1CCN(CCC(=O)NC2CCCc3c(OC)cccc32)CC1` (stereo not shown) [Compound 6], the Ki was determined as 253 ± 25 nM.
